The numbers were not newly measured in paper PMC3209708 (Journal of medicinal chemistry, 2011), which cites them from elsewhere.

The test system of this series is RT16 cells (FRα). To be noted: read-out: IC50 RT16 (+FA); cited from earlier work.

As for `Nc1nc2[nH]c(CCCCc3ccc(C(=O)N[C@@H](CCC(=O)O)C(=O)O)s3)cc2c(=O)[nH]1` [Compound 4], the IC50 (in general, the concentration that inhibits the measured activity by half) is more than 1 µM.
